Experimental findings from patent publication US9487504B2, “Imidazolyl analogs as syk inhibitors” (Merck Sharp & Dohme Corp., priority 2012, dated 2016) are described below.

In the assay the target is recombinant human GST-Syk (Homo sapiens, UniProt P43405). Kind of assay: Homogeneous Time-Resolved Fluorescence (HTRF) assay for the recombinant human Syk enzyme. Conditions: read-out: rhSYK IC50, ATP 25 μM, 10-dose titration. The protocol:
Syk inhibition may be determined using the following assay protocol:
Homogeneous Time-Resolved Fluorescence (HTRF) Assay for the Recombinant Human Syk Enzyme:
A recombinant GST-hSyk fusion protein was used to measure potency of compounds to inhibit human Syk activity. The recombinant human GST-Syk (Carna Biosciences #08-176) ([…]) was incubated with various concentrations of the inhibitor diluted in DMSO (0.1% final concentration) for 10 minutes at room temperature in 15 mM Tris-HCl (pH 7.5), 0.01% tween 20, 2 mM DTT in 384 well plate format. To initiate the reaction the biotinylated substrate peptide (250 nM final concentration) that contains the phosphorylation site for Syk was added with magnesium (5 mM final concentration) and ATP (25 μM final concentration). Final volume of the reaction was 10 μL. Phosphorylation of the peptide was allowed to proceed for 45 minutes at room temperature. To quench the reaction and detect the phosphorylated product, 2 nM of a Europium-anti-phosphotyrosine antibody (Perkin Elmer #AD0161) and 70 nM SA-APC (Perkin-Elmer #CR130-100) were added together in 15 mM Tris pH 7.5, 40 mM EDTA, 0.01% tween 20. Final volume of the quenching solution was 10 μL. The resulting HTRF signal was measured after 30 minutes on an EnVision (Perkin-Elmer) reader using a time-resolved fluorescence protocol. […]
(In general: In TR-FRET formats the signal depends on donor and acceptor labels being close together.)

The structures appear in SMILES notation.

`Cc1cc(Nc2nccc(C(F)(F)F)n2)cc(-n2cnc(C3(O)CCC(C(=O)O)CC3)c2)c1` (stereo not drawn) [Example 35, trans-4-hydroxy-4-[1-(3-methyl-5-[[4-(trifluoromethyl)pyrimidin-2-yl]amino}phenyl)-1H-imidazol-4-yl]cyclohexanecarboxylic acid]: the IC50 worked out at 1 nM.
